Tested on: yeast cells
Conditions: deletion mutants treated at 15 ug/L air

CC(C)C(=O)N(C)N=O [Compound 1, N-methyl N-nitrosoisobutyramide]
sensitive mutants for which DNA damage repair genes were deleted: About 38%
